Experimental findings from article PMC3879356 (PLoS ONE, 2014) are described below.

This assay concerns the target T1, TRC40/RAMP4 complex (MBP-TRC40/HZZ-RAMP4op protein complex) (UniProt O43681 1-348; Q9Y6X1 1-66).
T1 construct: TRC40, wild type; as m1; RAMP4, tail-anchored substrate protein; also called TRC40-R4; TRC40wt/RAMP4; source: bacterial expression, co-expressed, purified (Ni-NTA, then amylose resin)
The experiment in a line: reflectometric interference spectroscopy (RIfS); canine rough microsomes spread with POPC liposomes on a silicon-SiO2 chip; protein added stepwise from 40 nM to 1 µM; Langmuir fit of the adsorption isotherm; average of three independent measurements. To be noted: one partner purified.

B1: TRC40 membrane receptor complex (WRB/CAML) in canine rough microsomes (complex)
chain 1: MSGAEADRWAWLLVLSFVFGCNVLRILLPSFSSFMSRLLQKDAEQEAQMRAEIQDMKQELSTVNMMDEFARYARLERKINKMTDKLKTHVKARTAQLAKIKWVISVAFYILQAALMVSLIWKYYSVPVAVVPSKWITPLDRLVAFPTRVAGGVGITCWILVCNKVVAIVLHPFS
chain 2: MEPLTVASDSGDRPGAPATSGLSASQRRAELRRRKLLMNSEQRINRIMGFHRPGSGAEEESQTKSKQQDSDKLNSLSIPSVSKRVVLGDSVSIGTTDQQSGVAEVKGTQLGDKLDSFIKPPECSNDVNLELRQRNRGDLTADTVQRGSRHGLEQYLSRFEEAMKLRKQLISEKPNQEDGNTTEEFDSFRIFRLVGCALLAFGVRAFVCKYLSIFAPFLTLQLAYMGLYKYFPKGEKKIKTTVLTAALLLSGIPAEVINRSMDTYSKMGEVFTDLCVYFFTFIFCHELFNYWGSEVP
B1: the affinity, expressed as Kd, was 262 nM.

A word on the Kd: it is the concentration at which binding is half-saturated.
